Structures can show the parent of a compound that is named as a salt.
How the values were obtained:
[1] = biological target: PI 3-kinase alpha (Homo sapiens (Human), UniProt P42336); conditions: read-out: Assay A PI3Kα IC50
[2] = biological target: PI 3-kinase beta (Homo sapiens (Human), UniProt P42338); conditions: read-out: Assay B PI3Kβ IC50
[3] = biological target: PI 3-kinase beta (Rat-1 pBABEpuro Myr-HA-hp110 beta cells) (Homo sapiens (Human), UniProt P42338); experiment: cell-based; conditions: Assay I PI3Kβ IC50
[4] = biological target: PI 3-kinase alpha (Rat-1 pBABEpuro Myr-HA-hp110 alpha cells) (Homo sapiens (Human), UniProt P42336); experiment: cell-based; conditions: Assay H PI3Kα IC50

Sequences of proteins named here, by UniProt entry; tags and fusion partners are left off. A change or cut given only in a name is not applied to a line headed by its entry.
UniProt P42336, whole entry, looked up: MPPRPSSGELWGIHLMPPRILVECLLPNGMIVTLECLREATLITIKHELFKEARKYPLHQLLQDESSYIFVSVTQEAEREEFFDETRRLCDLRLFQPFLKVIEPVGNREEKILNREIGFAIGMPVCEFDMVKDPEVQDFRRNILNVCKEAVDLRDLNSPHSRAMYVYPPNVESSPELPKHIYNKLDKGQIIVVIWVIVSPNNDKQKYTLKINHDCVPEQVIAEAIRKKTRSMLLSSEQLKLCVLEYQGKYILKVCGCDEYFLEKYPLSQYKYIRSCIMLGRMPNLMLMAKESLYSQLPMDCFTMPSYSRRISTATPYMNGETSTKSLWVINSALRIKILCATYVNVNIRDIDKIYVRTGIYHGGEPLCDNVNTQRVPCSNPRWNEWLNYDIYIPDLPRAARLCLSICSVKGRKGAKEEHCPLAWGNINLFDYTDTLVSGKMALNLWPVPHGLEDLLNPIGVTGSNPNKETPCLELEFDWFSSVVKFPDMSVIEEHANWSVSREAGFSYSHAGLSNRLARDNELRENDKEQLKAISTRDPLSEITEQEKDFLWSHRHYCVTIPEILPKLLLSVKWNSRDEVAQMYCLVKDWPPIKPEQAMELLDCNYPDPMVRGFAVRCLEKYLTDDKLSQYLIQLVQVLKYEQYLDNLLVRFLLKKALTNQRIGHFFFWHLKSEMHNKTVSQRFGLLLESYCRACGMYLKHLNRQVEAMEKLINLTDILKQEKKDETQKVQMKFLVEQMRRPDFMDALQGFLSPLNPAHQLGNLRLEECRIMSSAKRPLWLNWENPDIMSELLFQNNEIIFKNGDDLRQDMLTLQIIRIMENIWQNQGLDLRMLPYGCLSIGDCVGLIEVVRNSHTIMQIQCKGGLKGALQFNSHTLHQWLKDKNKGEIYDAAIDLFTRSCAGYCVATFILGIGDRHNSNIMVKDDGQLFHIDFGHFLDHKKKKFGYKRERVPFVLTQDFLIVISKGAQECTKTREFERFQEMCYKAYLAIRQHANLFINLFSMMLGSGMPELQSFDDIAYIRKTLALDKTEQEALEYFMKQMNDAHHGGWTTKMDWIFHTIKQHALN
UniProt P42338: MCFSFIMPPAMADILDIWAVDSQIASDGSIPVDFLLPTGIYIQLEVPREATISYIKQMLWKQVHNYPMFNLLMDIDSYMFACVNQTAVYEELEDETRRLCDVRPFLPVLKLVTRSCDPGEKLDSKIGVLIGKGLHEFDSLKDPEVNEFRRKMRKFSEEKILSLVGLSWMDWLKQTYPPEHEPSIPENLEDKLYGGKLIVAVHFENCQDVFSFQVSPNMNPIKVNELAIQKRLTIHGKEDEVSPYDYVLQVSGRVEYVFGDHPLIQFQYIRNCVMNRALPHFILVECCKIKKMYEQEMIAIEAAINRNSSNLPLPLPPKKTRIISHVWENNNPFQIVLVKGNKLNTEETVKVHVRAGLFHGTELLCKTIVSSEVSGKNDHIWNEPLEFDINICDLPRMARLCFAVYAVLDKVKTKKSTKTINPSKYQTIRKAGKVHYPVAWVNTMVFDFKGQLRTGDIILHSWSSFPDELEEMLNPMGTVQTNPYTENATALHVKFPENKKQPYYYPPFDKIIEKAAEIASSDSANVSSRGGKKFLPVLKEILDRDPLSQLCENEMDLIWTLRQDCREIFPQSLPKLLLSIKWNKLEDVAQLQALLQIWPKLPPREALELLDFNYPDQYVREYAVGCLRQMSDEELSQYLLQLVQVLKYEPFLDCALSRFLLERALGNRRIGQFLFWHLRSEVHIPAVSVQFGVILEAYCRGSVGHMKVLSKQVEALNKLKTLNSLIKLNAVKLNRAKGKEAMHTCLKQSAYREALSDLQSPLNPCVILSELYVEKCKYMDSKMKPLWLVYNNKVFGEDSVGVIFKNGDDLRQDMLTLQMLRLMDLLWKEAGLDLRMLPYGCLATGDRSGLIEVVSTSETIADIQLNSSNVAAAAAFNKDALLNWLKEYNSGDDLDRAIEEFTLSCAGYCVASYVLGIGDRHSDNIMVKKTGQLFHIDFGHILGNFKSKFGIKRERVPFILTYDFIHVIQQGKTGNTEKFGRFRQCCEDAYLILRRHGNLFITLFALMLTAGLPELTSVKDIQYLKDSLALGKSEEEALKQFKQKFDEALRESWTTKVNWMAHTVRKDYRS

| SMILES | IC50 [1] | IC50 [2] | IC50 [3] | IC50 [4] |
| --- | --- | --- | --- | --- |
| Cc1cccc(NS(=O)(=O)c2ccc(C)c(-c3cnc(N)c(-c4cnn(CC(F)(F)F)c4)c3)c2)n1 [Example 1, 3-{6-Amino-5-[1-(2,2,2-trifluoro-ethyl)-1H-pyrazol-4-yl]-pyridin-3-yl}-4-methyl-N-(6-methyl-pyridin-2-yl)-benzenesulfonamide] | 0.19 µM | 4.05 µM | 5.98 µM | 7.08 µM |
| Cc1cc(-c2cc(-c3cc(S(=O)(=O)N[C@H]4CC[C@H](O)CC4)ccc3C)cnc2N)on1 [Example 5.4, trans 3-(6-Amino-5-(3-methylisoxazol-5-yl)pyridin-3-yl)-N-(-4-hydroxycyclohexyl)-4-methylbenzenesulfon-amide hydrochloride] |  | 3.1 µM | > 10 µM |  |
| Cc1noc(-c2cc(-c3cc(S(=O)(=O)NCC(C)(C)O)ccc3C)cnc2N)n1 [Example 10, 3-(6-Amino-5-(3-methyl-1,2,4-oxadiazol-5-yl)pyridin-3-yl)-N-(2-hydroxy-2-methylpropyl)-4-methylbenzenesulfonamide, hydrochloride salt] |  | 4.3 µM | 4.03 µM |  |
| Cc1ncc(-c2cc(-c3cc(S(=O)(=O)NCCC(C)(C)O)ccc3C)cnc2N)o1 [Example 13, 3-[6-Amino-5-(2-methyl-oxazol-5-yl)-pyridin-3-yl]-N-(3-hydroxy-3-methyl-butyl)-4-methyl-benzenesulfonamide, hydrochloride salt] | 0.14 µM | 0.85 µM | > 10 µM |  |
| Cc1ncc(-c2cc(-c3cc(S(=O)(=O)NCC(C)(C)O)ccc3C)cnc2N)s1 [Example 15, 3-[6-Amino-5-(2-methyl-thiazol-5-yl)-pyridin-3-yl]-N-(2-hydroxy-2-methyl-propyl)-4-methyl-benzenesulfonamide] |  | 4.2 µM | 8.93 µM |  |
| Cc1noc(-c2cc(-c3cc(S(=O)(=O)NCC4CCOC4)ccc3C)cnc2N)n1 (stereo not shown) [Example 29, 3-(6-Amino-5-(3-methyl-1,2,4-oxadiazol-5-yl)pyridin-3-yl)-4-methyl-N-((tetrahydrofuran-3-yl)methyl)benzenesulfonamide] |  |  | > 10 µM |  |
| CCN1CCC[C@@H]1CNS(=O)(=O)c1ccc(C)c(-c2cnc(N)c(-c3cc(C)no3)c2)c1 [Example 37.27, (R)-3-(6-Amino-5-(3-methylisoxazol-5-yl)pyridin-3-yl)-N-((1-ethylpyrrolidin-2-yl)methyl)-4-methylbenzenesulfonamide] | 1.4 µM | 2.7 µM | 5.72 µM |  |
| Cc1ccc(S(=O)(=O)N[C@H]2CC[C@H](O)CC2)cc1-c1cnc(N)c(-c2nc(CC(F)(F)F)no2)c1 [Example 78, trans-3-(6-Amino-5-(3-(2,2,2-trifluoroethyl)-1,2,4-oxadiazol-5-yl)pyridin-3-yl)-N-((1r,4r)-4-hydroxycyclohexyl)-4-methylbenzenesulfonamide] |  |  |  | > 10 µM |
| Cc1ccc(S(=O)(=O)NCC(C)(C)O)cc1-c1cnc(N)c(-n2cncn2)c1 [Example 81, 3-(6-Amino-5-(1H-1,2,4-triazol-1-yl)pyridin-3-yl)-N-(2-hydroxy-2-methylpropyl)-4-methylbenzenesulfonamide hydrochloride] |  | 6.3 µM | 4.2 µM |  |
| Cc1cnc(-c2cc(-c3cc(S(=O)(=O)NCCC(C)(C)O)ccc3C)cnc2N)s1 [Example 91, 3-(6-Amino-5-(5-methylthiazol-2-yl)pyridin-3-yl)-N-(3-hydroxy-3-methylbutyl)-4-methylbenzenesulfonamide] |  | 0.22 µM | 2.47 µM | 4.36 µM |
| Cc1ncc(-c2cc(-c3cc(S(=O)(=O)N[C@H]4CC[C@H](O)CC4)ccc3C)cnc2N)o1 [Example 98, 3-(6-amino-5-(2-methyloxazol-5-yl)pyridin-3-yl)-N-((1r,4r)-4-hydroxycyclohexyl)-4-methylbenzenesulfonamide hydrochloride] |  | 1.7 µM | 2.55 µM |  |

— patent US10112926B2 (priority 2014, dated 2018)
